The results in this text go back to patent publication US20260199350A1, “FLAVONES, QUINOLINONES, QUINAZOLINONES, AND AURONES, AND USES IN CK2-MEDIATED DISEASES” (Salk Institute for Biological Studies, priority 2022, published 2026).

Chains of the proteins cited; added tags and fusions are not shown.
UniProt P19784, whole entry: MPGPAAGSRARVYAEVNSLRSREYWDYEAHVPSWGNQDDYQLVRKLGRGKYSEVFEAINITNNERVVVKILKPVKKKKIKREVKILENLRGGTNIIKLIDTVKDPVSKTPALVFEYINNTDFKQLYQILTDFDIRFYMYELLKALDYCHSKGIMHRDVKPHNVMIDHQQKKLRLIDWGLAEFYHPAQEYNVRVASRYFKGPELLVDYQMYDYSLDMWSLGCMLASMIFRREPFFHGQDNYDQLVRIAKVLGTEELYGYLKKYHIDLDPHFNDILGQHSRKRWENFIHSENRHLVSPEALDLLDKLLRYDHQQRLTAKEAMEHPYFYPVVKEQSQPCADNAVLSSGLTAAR

The target in the test is T1, CK2A2 (Homo sapiens, UniProt P19784).
T1 construct: purchased Eurofins
The test is described as follows: Radiometric kinase assay (Eurofins), CK2A2. Format: biochemical.

As to `O=c1cc(-c2ccc(O)c(Br)c2)oc2c(Br)cc(Br)cc12` [JKT.464A], the “Window of selectivity for CK2A2 over CK2A1” value is given as “striking”.
